Data reported in article PMC8949525, “Essential Elements and Isoflavonoids in the Prevention of Prostate Cancer” (Nutrients, 2022).
Where two headings read alike, the source gives them in different places.

Columns and labels:
[1] = tested on: S. typhimurium TA1535/pSK1002; details: +S9
Experimental: (§1) The umu-test detects the induction of bacterial DNA-damage response, the SOS system, in the strain S. typhimurium TA1535/pSK1002. The test strain carries pSK1002 plasmid, which contains the fusion of umuC, encoding one of SOS response proteins, and lacZ genes. The expression of β-galactosidase protein is fully controlled by umuC gene.
(§2) In the present study, the umu-test was performed in the micro-plate format according to the ISO guideline. The β-galactosidase activity was determined by the degree of ONPG cleavage measured as sample absorbance at 420 nm. The extent of SOS system activation was presented as induction ratio (IR), calculated as the ratio of β-galactosidase activity in the presence of the tested compound(s) to that of negative control. […] The optical density at 600 nm was used to describe the bacteria growth. […] Both measurements were performed with Asys UVM340 Hightech microplate spectrophotometer.
The S9 fraction from rat liver was used for metabolic activation of the tested compounds and the model mutagen. […] The P450 cytochrome level in the isolate was evaluated and the aliquots were stored at −80 °C. The S9 reaction mix was prepared as described by Maron and Ames.
(§3) In order to the establish anti-genotoxic potential of tested compounds, their effects on the action of two model genotoxic agents, 4NQO without the metabolic activation with rat liver S9 fraction and 2AA with metabolic activation, were evaluated. […] Subsequently, the modulation of 4NQO and 2AA genotoxicity by the isoflavones, the elements and their mixtures in previously used concentrations was investigated.

[2] = tested on: S. typhimurium TA1535/pSK1002; details: 4NQO 0.05 mg/L, −S9; daidzein or equol 10 μM with or without mineral (Table 3); NQO line = genotoxin alone
Experimental: as §1, §2, §3

[3] = isoflavone 10 μM, minerals Zn 0.5, Se 0.03, Cu 0.5, Fe 1.5, Ca 40 μg/mL

| SMILES | G (growth ratio) ([1]; 2AA 1 mg/L, genistein 10 μM and/or mineral added (Table 5), 2AA line = genotoxin alone) | G (growth ratio) [1, 3] | G (growth ratio) ([1]; 2AA 5 mg/L, daidzein or equol 10 μM with or without mineral (Table 6), 2AA line = genotoxin alone) | G (growth ratio) [2] |
| --- | --- | --- | --- | --- |
| [Ca+2].[Cl-].[Cl-] [Ca, calcium chloride] | 1.16 ± 0.10 | 1.09 ± 0.15 |  |  |
| O=[Se](=O)([O-])[O-].[Na+].[Na+] [Se, sodium selenate] |  | 1.09 ± 0.13 |  |  |
| Oc1ccc([C@H]2COc3cc(O)ccc3C2)cc1 [eq, equol] |  | 1.06 ± 0.09 | 1.03 ± 0.09 | 1.06 ± 0.27 |
